Measured values reported in ChEMBL document CHEMBL4321856.

Sequences of proteins named here, by UniProt entry; tags and fusion partners are left off.
UniProt P33535, whole entry: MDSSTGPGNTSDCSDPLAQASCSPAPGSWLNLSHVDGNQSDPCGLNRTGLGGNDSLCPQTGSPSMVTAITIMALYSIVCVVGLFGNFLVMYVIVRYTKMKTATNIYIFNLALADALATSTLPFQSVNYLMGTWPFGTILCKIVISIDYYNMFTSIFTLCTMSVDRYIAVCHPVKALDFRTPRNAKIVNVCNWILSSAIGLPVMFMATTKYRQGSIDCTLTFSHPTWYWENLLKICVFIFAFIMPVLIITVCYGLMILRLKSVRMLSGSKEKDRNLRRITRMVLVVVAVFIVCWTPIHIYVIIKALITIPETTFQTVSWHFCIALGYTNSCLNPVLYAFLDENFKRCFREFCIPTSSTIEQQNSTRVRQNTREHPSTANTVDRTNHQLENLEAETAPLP
UniProt P33533, whole entry: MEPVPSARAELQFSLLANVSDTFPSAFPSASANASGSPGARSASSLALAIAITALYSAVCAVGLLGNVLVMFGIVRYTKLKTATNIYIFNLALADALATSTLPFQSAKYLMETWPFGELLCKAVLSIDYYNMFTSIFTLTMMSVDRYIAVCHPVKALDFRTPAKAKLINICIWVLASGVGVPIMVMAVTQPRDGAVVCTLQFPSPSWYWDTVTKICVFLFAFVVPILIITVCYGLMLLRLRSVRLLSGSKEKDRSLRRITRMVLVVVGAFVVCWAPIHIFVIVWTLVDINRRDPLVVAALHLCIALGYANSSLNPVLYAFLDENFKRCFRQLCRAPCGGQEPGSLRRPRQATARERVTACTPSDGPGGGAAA
UniProt P41145, whole entry: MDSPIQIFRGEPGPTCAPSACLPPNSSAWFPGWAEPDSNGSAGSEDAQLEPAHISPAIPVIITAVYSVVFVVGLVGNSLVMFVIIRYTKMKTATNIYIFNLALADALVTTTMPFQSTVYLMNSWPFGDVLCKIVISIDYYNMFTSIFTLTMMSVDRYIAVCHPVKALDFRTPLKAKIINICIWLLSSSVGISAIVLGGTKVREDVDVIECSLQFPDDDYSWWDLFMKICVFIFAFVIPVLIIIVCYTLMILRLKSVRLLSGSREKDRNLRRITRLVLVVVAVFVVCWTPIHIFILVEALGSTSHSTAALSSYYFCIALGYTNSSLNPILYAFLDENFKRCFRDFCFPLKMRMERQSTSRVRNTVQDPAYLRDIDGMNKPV

How the values were obtained:
Mu-type opioid receptor [1] = target: T1, Mu-type opioid receptor (Rattus norvegicus, UniProt P33535); test: Displacement of [3H]DAMGO from rat MOR expressed in CHO cell membranes incubated for 30 mins by liquid scintillation counting
[2] = target: T2, Delta-type opioid receptor (Rattus norvegicus, UniProt P33533); test: Displacement of [3H]DPDPE from rat DOR expressed in CHO cell membranes incubated for 30 mins by liquid scintillation counting
[3] = target: T3, Kappa-type opioid receptor (Homo sapiens, UniProt P41145); test: Displacement of [3H]U69593 from human KOR expressed in CHO cell membranes incubated for 30 mins by liquid scintillation counting
[4] = target: T2, Delta-type opioid receptor; test: Agonist activity at rat DOR expressed in CHO cell membranes assessed as stimulation of [35S]GTPgammaS binding incubated for 1 hr by liquid scintillation counting
Mu-type opioid receptor [5] = target: T1, Mu-type opioid receptor; test: Agonist activity at rat MOR expressed in CHO cell membranes assessed as stimulation of [35S]GTPgammaS binding incubated for 1 hr by liquid scintillation counting
[6] = target: T3, Kappa-type opioid receptor; test: Agonist activity at human KOR expressed in CHO cell membranes assessed as stimulation of [35S]GTPgammaS binding incubated for 1 hr by liquid scintillation counting

Row | SMILES | Ki (Mu-type opioid receptor [1]) [nM] | Ki [2] [nM] | Ki [3] [nM] | EC50 [4] [nM] | EC50 (Mu-type opioid receptor [5]) [nM] | EC50 [6] [nM]
1 | COc1ccc2c3c1O[C@H]1[C@@]4(OC)CC[C@@]5(C[C@@H]4c4ccc(NCCN(C)C)cc4)[C@@H](C2)N(CC2CC2)CC[C@]315 | 15.9 | 138 | 13 |  |  | 
2 | COc1ccc2c3c1O[C@H]1[C@@]4(OC)CC[C@@]5(C[C@@H]4c4ccc(NC(=O)Cc6ccccc6)cc4)[C@@H](C2)N(CC2CC2)CC[C@]315 | 26 | 132 | 21.4 | 132 |  | 
3 | COc1ccc2c3c1O[C@H]1[C@@]4(OC)CC[C@@]5(C[C@@H]4c4ccc(NC=O)cc4)[C@@H](C2)N(CC2CC2)CC[C@]315 | 18.6 | 132 | 4.3 |  |  | 
4 | COc1ccc2c3c1O[C@H]1[C@@]4(OC)CC[C@@]5(C[C@@H]4c4ccc(NCc6ccccc6)cc4)[C@@H](C2)N(CC2CC2)CC[C@]315 | 319 | 626 | 17.2 | 78.9 | 1430 | 
5 | COc1ccc2c3c1O[C@H]1[C@@]4(OC)CC[C@@]5(C[C@@H]4c4ccc(N6CCCCC6)cc4)[C@@H](C2)N(CC2CC2)CC[C@]315 | 9.6 | 1030 | 40.3 |  |  | 
6 | COc1ccc2c3c1O[C@H]1[C@@]4(OC)CC[C@@]5(C[C@@H]4c4ccc(NC(C)=O)cc4)[C@@H](C2)N(CC2CC2)CC[C@]315 | 8.6 | 216 | 7.8 |  |  | 20.7
7 | COc1ccc2c3c1O[C@H]1[C@@]4(OC)C=C[C@@]5(C[C@@H]4c4ccccc4)[C@@H](C2)N(C)CC[C@]315 |  |  | 7890 |  |  | 175
